Data: ChEMBL document CHEMBL1743201, “Casarett and Doull's Toxicology The Basic Science of Poisons, 7th edition” (2008)

Chains of the proteins cited; added tags and fusions are not shown. Lines headed by an entry give the natural chain unless they say otherwise; changes in a name come on top. Residues count along the entry.
UniProt P35503, 29-534 limits assumed: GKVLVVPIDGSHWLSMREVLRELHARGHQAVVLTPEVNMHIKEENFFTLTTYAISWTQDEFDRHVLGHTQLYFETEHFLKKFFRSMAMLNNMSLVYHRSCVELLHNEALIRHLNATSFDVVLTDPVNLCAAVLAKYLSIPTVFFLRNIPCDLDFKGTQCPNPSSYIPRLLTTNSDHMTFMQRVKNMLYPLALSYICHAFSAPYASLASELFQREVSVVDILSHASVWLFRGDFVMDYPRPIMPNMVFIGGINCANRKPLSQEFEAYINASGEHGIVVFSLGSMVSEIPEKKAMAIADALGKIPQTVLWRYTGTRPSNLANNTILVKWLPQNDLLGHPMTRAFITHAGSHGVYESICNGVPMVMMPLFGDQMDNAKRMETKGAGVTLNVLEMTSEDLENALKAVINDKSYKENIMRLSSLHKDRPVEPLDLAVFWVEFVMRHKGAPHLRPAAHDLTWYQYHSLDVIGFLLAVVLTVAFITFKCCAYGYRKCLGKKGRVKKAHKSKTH
UniProt Q9H4Y5: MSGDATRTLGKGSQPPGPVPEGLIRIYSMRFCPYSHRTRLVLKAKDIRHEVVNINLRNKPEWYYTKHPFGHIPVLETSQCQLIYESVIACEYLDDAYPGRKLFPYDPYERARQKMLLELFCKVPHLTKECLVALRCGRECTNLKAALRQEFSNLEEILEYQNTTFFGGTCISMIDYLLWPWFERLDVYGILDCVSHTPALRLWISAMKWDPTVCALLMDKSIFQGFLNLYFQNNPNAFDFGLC
UniProt P78417, 2-241 limits assumed: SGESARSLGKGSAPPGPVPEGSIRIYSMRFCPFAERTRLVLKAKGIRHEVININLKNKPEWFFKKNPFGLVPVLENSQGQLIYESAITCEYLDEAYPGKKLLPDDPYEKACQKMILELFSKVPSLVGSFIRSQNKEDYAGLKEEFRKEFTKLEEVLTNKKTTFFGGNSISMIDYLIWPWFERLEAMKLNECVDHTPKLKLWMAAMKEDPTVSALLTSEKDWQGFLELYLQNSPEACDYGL

Key:
Assay type in all cases: ADME
[1] = molecular target: UDP-glucuronosyltransferase 1A3 (Homo sapiens, UniProt P35503); experiment: Substrate of human UDP-glucuronosyltransferase UGT1A3
[2] = molecular target: Glutathione S-transferase omega-2 (Homo sapiens, UniProt Q9H4Y5); experiment: Substrates for human cytosolic glutathione transferase GSTO2
[3] = molecular target: Glutathione S-transferase omega-1 (Homo sapiens, UniProt P78417); experiment: Substrates for human cytosolic glutathione transferase GSTO1

SMILES | Activity [1] | Activity [2] | Activity [3]
CO[C@]12CC[C@@]3(C[C@@H]1[C@](C)(O)C(C)(C)C)[C@H]1Cc4ccc(O)c5c4[C@@]3(CCN1)[C@H]2O5 | Substrate |  | 
C[As](=O)(O)O |  | Substrate | Substrate
